Target: GDP-loaded HIS-KRAS (G12D, aa 1-169) (Homo sapiens, UniProt P01116, G12D)
Test: SOS1 catalyzed nucleotide exchange assay
Details: read-out: Nucleotide exchange IC50, SOS1 ExD, TR-FRET, 4 hours at 25° C.
Procedure: 1. SOS1 Catalyzed Nucleotide Exchange Assay
GDP-loaded HIS-KRAS (G12D, aa 1-169) was pre-incubated with a compound in the presence of 10 nM GDP in a 384-well plate (Greiner) for 15 min, then purified SOS1 ExD (Flag tag, aa 564-1049), BODIPY™ FL GTP (Invitrogen) and MAb (monoclonal antibody) Anti 6HIS-Tb cryptate Gold (Cisbio) were added to the assay wells (Final concentration: 1.5 nM GDP-loaded HIS-KRAS (G12D), 5 nM GDP, 0.5 μM SOS1 ExD, 80 nM BODIPY™ FL GTP, 52.5 ng/mL MAb Anti 6HIS-Tb cryptate Gold) and incubated for 4 hours at 25° C. Wells containing same percent of DMSO served as vehicle control, and wells without KRAS served as low control. TR-FRET signals were read on Tecan Spark multimode microplate reader. The parameters were F486: Excitation 340 nm, Emission 486 nm, Lag time 100 μs, Integration time 200 μs; F515: Excitation 340 nm, Emission 515 nm, Lag time 100 μs, Integration time 200 μs. TR-FRET ratios for each individual wells were calculated by equation: TR-FRET ratio=(Signal F515/Signal F486)*10000. The percent of activation of compounds treated wells were normalized between vehicle control and low control (% Activation=(TR-FRET ratioCompound treated−TR-FRET ratioLow control)/(TR-FRET ratioVehicle control−TR-FRET ratioLow control)*100%). Then the data were analyzed either by fitting a 4-parameter logistic model or by Excel to calculate IC50 values.

Chains of the proteins cited; added tags and fusions are not shown. Residues count along the entry.
UniProt P01116, 1-169 isoform 2 G12D limits assumed: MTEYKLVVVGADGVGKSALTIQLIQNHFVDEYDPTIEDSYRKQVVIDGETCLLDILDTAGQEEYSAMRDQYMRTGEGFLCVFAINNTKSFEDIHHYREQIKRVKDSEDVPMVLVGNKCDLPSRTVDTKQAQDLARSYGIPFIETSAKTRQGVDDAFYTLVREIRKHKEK

First: C#Cc1cccc2cc(O)cc(-c3ccc4c(N5CC6CCC(C5)N6)nc(OCC5(CN6CCOCC6)CCC5)nc4c3F)c12
Second: C#Cc1cccc2cc(O)cc(-c3c(F)cc4c(N5CC6CCC(C5)N6)nc(OCC5(CN6CCOCC6)CC5)nc4c3C)c12 (single isomer, unassigned)
The IC50 of the first is 5.8-fold higher: 6.64 nM for the first, 1.15 nM for the second.

Same assay, conditions: read-out: Nucleotide exchange IC50, SOS1 ExD, TR-FRET, 4 hours at 25° C., tested form: TFA

First: C#Cc1cccc2cc(O)cc(-c3ccc4c(N5CC6CCC(C5)N6)nc(OCC5(C(C)N6CCOCC6)CC5)nc4c3F)c12 (centres unmarked)
Second: C#Cc1cccc2cc(O)cc(-c3c(SC(F)(F)F)cc4c(N5CC6CCC(C5)N6)nc(OCC5(CN6CCOCC6)CC5)nc4c3F)c12 (single isomer, unassigned) [Compound 59B]
The IC50 of the first is 5.9-fold lower: 6.86 nM for the first, 40.3 nM for the second. The first is the more potent here.

Going from `N#CCCc1cc2c(N3CC4CCC(C3)N4)nc(OCC3(CN4CCOCC4)CC3)nc2c(F)c1-c1cc(O)cc2ccccc12` to `CN(C)CC1(COc2nc(N3CC4CCC(C3)N4)c3cc(Cl)c(-c4cc(O)cc5cccc(Cl)c45)c(F)c3n2)CC1`, the IC50 rises from 5.05 nM to 32.2 nM (6.4-fold).

Target: GppNp-loaded HIS-KRAS (G12D, aa 1-169) / cRAF RBD (Homo sapiens, UniProt P01116, G12D)
Test: GTP-KRAS and cRAF interaction assay
Details: read-out: GTP-KRAS/cRAF interaction IC50, HTRF, 2 hours at 25° C.
Procedure: 2. GTP-KRAS and cRAF Interaction Assay
GppNp-loaded HIS-KRAS (G12D, aa 1-169) was pre-incubated with a compound in the presence of 200 µM GTP in a 384-well plate (Greiner) for 15 min, then cRAF RBD (GST tag, aa 50-132, CreativeBioMart), MAb Anti GST-d2 (Cisbio) and MAb Anti 6HIS-Tb cryptate Gold (Cisbio) were added to the assay wells (Final concentration: 2.0 nM GppNp-loaded HIS-KRAS (G12D), 100 μM GTP, 35 nM cRAF RBD, 1 μg/mL MAb Anti GST-d2, 52.5 ng/mL MAb Anti 6HIS-Tb cryptate Gold) and incubated for 2 hours at 25° C. Wells containing same percent of DMSO served as vehicle control, and wells without KRAS served as low control. HTRF signals were read on Tecan Spark multimode microplate reader and HTRF ratios were calculated under manufacturer's instructions. The percent of activation of compounds treated wells were normalized between vehicle control and low control (% Activation=(HTRF ratioCompound treated−HTRF ratioLow control)/(HTRF ratioVehicle control−HTRF ratioLow control)*100). Then the data were analyzed either by fitting a 4-parameter logistic model or by Excel to calculate IC50 values.

Going from `C#Cc1cccc2cc(O)cc(-c3ccc4c(N5CC6CCC(C5)N6)nc(OCC5(CN6CCOCC6)CCC5)nc4c3F)c12` to `C#Cc1cccc2cc(O)cc(-c3c(F)cc4c(N5CC6CCC(C5)N6)nc(OCC5(CN6CCOCC6)CC5)nc4c3C)c12` (single isomer, unassigned), the IC50 falls from 429 nM to 138 nM (3.1-fold).

Same assay, conditions: read-out: GTP-KRAS/cRAF interaction IC50, HTRF, 2 hours at 25° C., tested form: TFA

Going from `C#Cc1cccc2cc(O)cc(-c3ccc4c(N5CC6CCC(C5)N6)nc(OCC5(C(C)N6CCOCC6)CC5)nc4c3F)c12` (centres unmarked) to `C#Cc1cccc2cc(O)cc(-c3c(SC(F)(F)F)cc4c(N5CC6CCC(C5)N6)nc(OCC5(CN6CCOCC6)CC5)nc4c3F)c12` (single isomer, unassigned) [Compound 59B], the IC50 falls from 347 nM to 94.5 nM (3.7-fold). The second is the more potent here.

`N#CCCc1cc2c(N3CC4CCC(C3)N4)nc(OCC3(CN4CCOCC4)CC3)nc2c(F)c1-c1cc(O)cc2ccccc12` and `CN(C)CC1(COc2nc(N3CC4CCC(C3)N4)c3cc(Cl)c(-c4cc(O)cc5cccc(Cl)c45)c(F)c3n2)CC1` are within 1.5-fold of each other in IC50: 353 nM for the first, 524 nM for the second.

System: AGS
Test: Cell growth inhibition assay (AGS)
Details: read-out: AGS Cell growth inhibition IC50, 6 days incubation, CellTiter-Glo
Procedure: (§1) 4. Cell Growth Inhibition Assay
AGS cultured in F12K medium (Gibco) containing 10% fetal bovine serum (Gibco). Cells in culture medium were plated in 96-well plates at a concentration of 500 cells/well ([…]) and allowed to attach overnight.
(§2) The next day, compounds were diluted in culture medium and added to the plates. After 6 days incubation in a 37° C./5% CO2 cell incubator, the cell viability was detected by CellTiter-Glo® Luminescent Cell Viability Assay kit (Promega). Luminescent signals were read on Tecan Spark multimode microplate reader and analyzed using a 4-parameter logistic model to calculate IC50 values.

Going from `C#Cc1cccc2cc(O)cc(-c3ccc4c(N5CC6CCC(C5)N6)nc(OCC5(CN6CCOCC6)CCC5)nc4c3F)c12` to `C#Cc1cccc2cc(O)cc(-c3c(F)cc4c(N5CC6CCC(C5)N6)nc(OCC5(CN6CCOCC6)CC5)nc4c3C)c12` (single isomer, unassigned), the IC50 falls from 79.9 nM to 19.3 nM (4.1-fold). The second is the more potent here.

Same assay, conditions: read-out: AGS Cell growth inhibition IC50, 6 days incubation, CellTiter-Glo, tested form: TFA

Going from `N#CCCc1cc2c(N3CC4CCC(C3)N4)nc(OCC3(CN4CCOCC4)CC3)nc2c(F)c1-c1cc(O)cc2ccccc12` to `C#Cc1cccc2cc(O)cc(-c3c(SC(F)(F)F)cc4c(N5CC6CCC(C5)N6)nc(OCC5(CN6CCOCC6)CC5)nc4c3F)c12` (single isomer, unassigned) [Compound 59B], the IC50 falls from 79.2 nM to 5.25 nM (15-fold). The second is the more potent here.

System: AsPC-1
Test: Cell growth inhibition assay (AsPC-1)
Details: read-out: AsPC-1 Cell growth inhibition IC50; AsPC-1, 6 days incubation, CellTiter-Glo
Procedure: as §1
AsPC-1 cultured in RPMI-1640 medium (Gibco) containing 10% fetal bovine serum (Gibco). Cells in culture medium were plated in 96-well plates at a concentration of 1000 cells/well ([…]) and allowed to attach overnight.
as §2

Going from `C#Cc1cccc2cc(O)cc(-c3ccc4c(N5CC6CCC(C5)N6)nc(OCC5(CN6CCOCC6)CCC5)nc4c3F)c12` to `C#Cc1cccc2cc(O)cc(-c3c(F)cc4c(N5CC6CCC(C5)N6)nc(OCC5(CN6CCOCC6)CC5)nc4c3C)c12` (single isomer, unassigned), the IC50 falls from 462 nM to 58 nM (8-fold).

Same assay, conditions: read-out: AsPC-1 Cell growth inhibition IC50; AsPC-1, 6 days incubation, CellTiter-Glo; tested form: TFA

`C#Cc1cccc2cc(O)cc(-c3c(SC(F)(F)F)cc4c(N5CC6CCC(C5)N6)nc(OCC5(CN6CCOCC6)CC5)nc4c3F)c12` (single isomer, unassigned) [Compound 59B] gave an IC50 of 12.7 nM.

System: AGS cells expressing KRAS G12D
Test: Phospho-ERK1/2(THR202/TYR204) HTRF assay
Details: read-out: AGS p-ERK IC50, 2 hours incubation
Procedure: AGS cells expressing KRAS G12D were cultured in F12K medium (Gibco) containing 10% fetal bovine serum (Gibco). The AGS cells in culture medium were seeded in 96-well plates at a concentration of 40,000 cells/well and then put in a 37° C./5% CO2 cell incubator to incubate overnight. The next day, culture medium was removed and the compound diluted in assay medium (F12K, 0.1% FBS) was added in each well. After 2 hours incubation in a 37° C./5% CO2 cell incubator, the assay medium in 96-well plates was removed, then 50 μL of 1× blocking reagent-supplemented lysis buffer (Cisbio) was added and the plates were incubated at 25° C. for 45 min with shaking. 10 μL of cell lysates from the 96-well plates were transferred to a 384-well plate (Greiner) containing 2.5 μL/well HTRF® pre-mixed antibodies (Cisbio 64AERPEH). Incubate 4 hours at 25° C. and then read HTRF signals on Tecan Spark multimode microplate reader. The data were analyzed using a 4-parameter logistic model to calculate IC50 values.

Going from `C#Cc1cccc2cc(O)cc(-c3ccc4c(N5CC6CCC(C5)N6)nc(OCC5(CN6CCOCC6)CCC5)nc4c3F)c12` to `C#Cc1cccc2cc(O)cc(-c3c(F)cc4c(N5CC6CCC(C5)N6)nc(OCC5(CN6CCOCC6)CC5)nc4c3C)c12` (single isomer, unassigned), the IC50 falls from > 200 nM to 139 nM.

Same assay, conditions: read-out: AGS p-ERK IC50, 2 hours incubation, tested form: TFA

Compared with `C#Cc1cccc2cc(O)cc(-c3ccc4c(N5CC6CCC(C5)N6)nc(OCC5(C(C)N6CCOCC6)CC5)nc4c3F)c12` (centres unmarked), `C#Cc1cccc2cc(O)cc(-c3c(SC(F)(F)F)cc4c(N5CC6CCC(C5)N6)nc(OCC5(CN6CCOCC6)CC5)nc4c3F)c12` (single isomer, unassigned) [Compound 59B] is 2-fold lower in IC50: 49.5 nM for the first, 25.2 nM for the second. The second is the more potent here.

Source: patent US20240059710A1, “KRAS G12D Inhibitors” (Jacobio Pharmaceuticals Co., Ltd., priority 2020, published 2024)
